# Ab-95 light chain CDR variants: yeast mating affinities

The target is the same throughout: PDVDLGDISGINAS, from the HR2 region of SARS-CoV-2 spike.

Parent scFv Ab-95: VH joined to VL by a 15-residue (Gly4Ser)3 linker. Changes lie in the light chain CDRs alone.
VH: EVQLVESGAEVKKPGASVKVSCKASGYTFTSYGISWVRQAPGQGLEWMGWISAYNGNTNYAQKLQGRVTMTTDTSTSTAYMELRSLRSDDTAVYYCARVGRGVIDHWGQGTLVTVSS
VL: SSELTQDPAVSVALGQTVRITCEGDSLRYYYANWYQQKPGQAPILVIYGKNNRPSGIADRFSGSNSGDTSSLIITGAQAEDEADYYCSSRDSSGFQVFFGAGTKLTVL

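The starting antibody came from a phage panning campaign against this peptide. Library AAYL52 holds single substitutions and randomly drawn double and triple substitutions in the CDRs. AlphaSeq pools MATa yeast showing the antibodies with MATalpha yeast showing the peptide. Mating (16 h, 30 °C) was followed by selection of diploids and sequencing of their barcodes. Read counts were normalised to the haploid input and turned into Kd by a linear fit to BCL2-family pairs of known affinity, for each replicate. Mating was done three times.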

The parent's light chain CDRs are EGDSLRYYYAN, GKNNRPS, SSRDSSGFQVF; each variant's own CDRs replace them letter for letter. The read-out is the apparent dissociation constant on a log10 scale (nM): the lower, the stronger. The mean shown is taken over the replicates in which the pair was detected. An entry "not detected" has no value in the source: the pair was not observed among the diploids in any replicate. This suggests poor binding but is not conclusive. Nonspecific signal, from three strains lacking the peptide, appeared in 28% of pairings of library AAYL52, centred on 3.91 (5% of these signals below 2.90); values are not corrected for it.

{"CDR-L1": "EGDSLRYYYAN", "CDR-L2": "GKNNRPS", "CDR-L3": "SARDSSGFQCF", "mean log10 Kd (nM)": "3.42", "detected": "3 of 3"}
{"CDR-L1": "EGDSPRYYYAN", "CDR-L2": "GKNNYWS", "CDR-L3": "SSRDSSGFQVF", "mean log10 Kd (nM)": "4.68", "detected": "1 of 3"}
{"CDR-L1": "EADSLRYYYAN", "CDR-L2": "GKNNRPS", "CDR-L3": "SSRDPSGRQVF", "mean log10 Kd (nM)": "2.16", "detected": "3 of 3"}
{"CDR-L1": "QGDSLRYYYAN", "CDR-L2": "GKNNRPS", "CDR-L3": "RSRDSIGFQVF", "mean log10 Kd (nM)": "4.09", "detected": "1 of 3"}
{"CDR-L1": "EGDSLRYYYAN", "CDR-L2": "GKNNMSS", "CDR-L3": "SSRDSFGFQVF", "mean log10 Kd (nM)": "4.94", "detected": "2 of 3"}
{"CDR-L1": "EGDSLRYYYAN", "CDR-L2": "PKNNRVS", "CDR-L3": "SSRRSSGFQVF", "mean log10 Kd (nM)": "3.73", "detected": "2 of 3"}
{"CDR-L1": "EGDSLWYLYAK", "CDR-L2": "GKNNRPS", "CDR-L3": "SSRDSSGFQVF", "mean log10 Kd (nM)": "4.25", "detected": "1 of 3"}
{"CDR-L1": "EGDSLRYRYAN", "CDR-L2": "GKNNRES", "CDR-L3": "SLRDSSGFQVF", "mean log10 Kd (nM)": "1.89", "detected": "3 of 3"}
{"CDR-L1": "EGWSLRYYYAN", "CDR-L2": "GKNNRPS", "CDR-L3": "SSGDSYGFQVF", "mean log10 Kd (nM)": "3.15", "detected": "3 of 3"}
{"CDR-L1": "EGDSLRYMYHN", "CDR-L2": "GKNNHPS", "CDR-L3": "SSRDSSGFQVF", "mean log10 Kd (nM)": "4.29", "detected": "1 of 3"}
{"CDR-L1": "EKDSLRYYYAN", "CDR-L2": "CKNNRPS", "CDR-L3": "SSHDSSGFQVF", "mean log10 Kd (nM)": "not detected", "detected": "0 of 3"}
{"CDR-L1": "EGDYLRYYYAN", "CDR-L2": "GKNNRPS", "CDR-L3": "DSRDSSGFWVF", "mean log10 Kd (nM)": "2.99", "detected": "2 of 3"}
{"CDR-L1": "EGDSLMYYYAN", "CDR-L2": "GKVNRPS", "CDR-L3": "SSRLSSGFQVF", "mean log10 Kd (nM)": "3.88", "detected": "1 of 3"}
{"CDR-L1": "EGDSLRYYYAN", "CDR-L2": "GKNNRPS", "CDR-L3": "SSRDSSIDQVF", "mean log10 Kd (nM)": "3.80", "detected": "2 of 3"}
{"CDR-L1": "EGDSLRYPYQN", "CDR-L2": "GKNNRES", "CDR-L3": "SSRDSSGFQVF", "mean log10 Kd (nM)": "2.65", "detected": "1 of 3"}
{"CDR-L1": "EGDELRRYYAN", "CDR-L2": "GKNNRPS", "CDR-L3": "SSRDSSGFKVF", "mean log10 Kd (nM)": "3.63", "detected": "2 of 3"}
{"CDR-L1": "EGDSLRYYYAN", "CDR-L2": "GKNIRPS", "CDR-L3": "SSRDSSFFTVF", "mean log10 Kd (nM)": "not detected", "detected": "0 of 3"}
{"CDR-L1": "EGDSLSYYYAN", "CDR-L2": "VKNNRPS", "CDR-L3": "SDRDSSGFQVF", "mean log10 Kd (nM)": "not detected", "detected": "0 of 3"}
{"CDR-L1": "EGDSLRYYYAN", "CDR-L2": "GKNNYPS", "CDR-L3": "SSRDSSFFGVF", "mean log10 Kd (nM)": "3.64", "detected": "2 of 3"}
{"CDR-L1": "EGDSCRYYYAN", "CDR-L2": "GKPNRPS", "CDR-L3": "SSRDSSGFCVF", "mean log10 Kd (nM)": "4.35", "detected": "2 of 3"}
{"CDR-L1": "EGDSLRYTYAL", "CDR-L2": "GKNNRPS", "CDR-L3": "SSRDSSGFQLF", "mean log10 Kd (nM)": "3.35", "detected": "2 of 3"}
{"CDR-L1": "EGDSSRYYYAN", "CDR-L2": "GKPNRPS", "CDR-L3": "SSRDSSGFYVF", "mean log10 Kd (nM)": "3.97", "detected": "3 of 3"}

Excerpt, the final 3 entries:

{"CDR-L1": "EGDSCRYYYAN", "CDR-L2": "GKPNRPS", "CDR-L3": "SSRDSSGFCVF", "mean log10 Kd (nM)": "4.35", "detected": "2 of 3"}
{"CDR-L1": "EGDSLRYTYAL", "CDR-L2": "GKNNRPS", "CDR-L3": "SSRDSSGFQLF", "mean log10 Kd (nM)": "3.35", "detected": "2 of 3"}
{"CDR-L1": "EGDSSRYYYAN", "CDR-L2": "GKPNRPS", "CDR-L3": "SSRDSSGFYVF", "mean log10 Kd (nM)": "3.97", "detected": "3 of 3"}

From the AlphaSeq antibody data of Engelhart et al. 2022 (doi:10.1038/s41597-022-01779-4), copy in the FLAb collection.